In the experiment the test system is E. cloacae strain no 6. The experiment is described as follows: MIC. The format is cell-based. To be noted: Enterobacter cloacae.
The mark [1] stands for this setting: NO6, E. cloacae strain 6, 5 uM thymidine, uridine 0 μg/ml, read-out: MIC.

≈ marks a conversion by molar mass, not a printed value. Like-named read-outs stand apart in the source and are kept apart here.

For orientation: MIC means the lowest concentration found to suppress growth. On to `Cc1cn([C@H]2C[C@H](N=[N+]=[N-])[C@@H](CO)O2)c(=O)[nH]c1=O` [AZT, 3′-azido-3′-deoxythymidine], for which the MIC under setting [1] lay within 5 to 10 µg/mL (≈ 18.7 to 37.4 µM); the MIC (NO6, read-out: MIC AZT, E. cloacae strain 6, thymidine 0 μM, uridine 0) fell in the range of 5 to 10 µg/mL (≈ 18.7 to 37.4 µM); the MIC (NO6, read-out: MIC AZT, E. cloacae strain 6, thymidine 0 μM, uridine 100 and trimethoprim 1 μg/ml) was not above 0.001 µg/mL; the MIC (NO6, read-out: MIC AZT, E. cloacae strain 6, thymidine 10 μM, uridine 0) lay within 5 to 10 µg/mL (≈ 18.7 to 37.4 µM); the MIC (NO6, read-out: MIC AZT, E. cloacae strain 6, thymidine 10 μM, uridine 100 μg/ml) fell in the range of 5 to 10 µg/mL (≈ 18.7 to 37.4 µM); the MIC (NO6, read-out: MIC AZT, E. cloacae strain 6, thymidine 10 μM, uridine 100 and trimethoprim 1 μg/ml) lay within 0.05 to 0.1 µg/mL (≈ 0.187 to 0.374 µM). For the same compound, the minimal inhibitory concentration (MIC) is 5 to 10 µg/mL (≈ 18.7 to 37.4 µM) (NO6, read-out: MIC AZT, E. cloacae strain 6, thymidine 30 μM, uridine 0); more than 10 µg/mL (NO6, read-out: MIC AZT, E. cloacae strain 6, thymidine 30 μM, uridine 100 μg/ml); more than 0.1 µg/mL (NO6, read-out: MIC AZT, E. cloacae strain 6, thymidine 30 μM, uridine 100 and trimethoprim 1 μg/ml); 0 to 0.05 µg/mL (NO6, read-out: MIC of AZT, E. cloacae strain 6, trimethoprim 1 μg/ml, uridine 0 μg/ml); 0 to 0.05 µg/mL (NO6, read-out: MIC of AZT, E. cloacae strain 6, trimethoprim 1 μg/ml, uridine 10 μg/ml); 0 to 0.05 µg/mL (NO6, read-out: MIC of AZT, E. cloacae strain 6, trimethoprim 1 μg/ml, uridine 100 μg/ml). Further, the MIC lay within 0 to 0.05 µg/mL (NO6, read-out: MIC of AZT, E. cloacae strain 6, trimethoprim 2 μg/ml, uridine 0 μg/ml); 0 to 0.05 µg/mL (NO6, read-out: MIC of AZT, E. cloacae strain 6, trimethoprim 2 μg/ml, uridine 10 μg/ml); 0 to 0.05 µg/mL (NO6, read-out: MIC of AZT, E. cloacae strain 6, trimethoprim 2 μg/ml, uridine 100 μg/ml); 10 to 20 µg/mL (NO6, read-out: MIC of AZT, E. cloacae strain no 6, uridine 0 μg/ml); 5 to 10 µg/mL (NO6, read-out: MIC of AZT, E. cloacae strain no 6, uridine 10 μg/ml); 5 to 10 µg/mL (NO6, read-out: MIC of AZT, E. cloacae strain no 6, uridine 50 μg/ml). The minimum inhibitory concentration (MIC) reads like this: (NO6, read-out: MIC of AZT, E. cloacae strain no 6, uridine 100 μg/ml) 2 to 5 µg/mL; (NO6, read-out: MIC of AZT, E. cloacae strain no 6, uridine 200 μg/ml) 2 to 5 µg/mL; (NO6, read-out: MIC of AZT, Table 4, E. cloacae strain 6, trimethoprim 0, uridine 0 μg/ml) 10 to 20 µg/mL; (NO6, read-out: MIC of AZT, Table 4, E. cloacae strain 6, trimethoprim 0, uridine 10 μg/ml) 5 to 10 µg/mL; (NO6, read-out: MIC of AZT, Table 4, E. cloacae strain 6, trimethoprim 0, uridine 100 μg/ml) 2 to 5 µg/mL; (NO6, read-out: MIC of AZT, Table 4, E. cloacae strain 6, trimethoprim 0, uridine 200 μg/ml) 2 to 5 µg/mL.

As for `O=c1[nH]cnc2c1ncn2[C@H]1CC[C@@H](CO)O1` [Didanosine, didanosine], the MIC (NO6, read-out: MIC Didanosine, E. cloacae strain 6, trimethoprim 0, uridine 0 μg/ml) was more than 30 µg/mL; the MIC (NO6, read-out: MIC Didanosine, E. cloacae strain 6, trimethoprim 0, uridine 10 μg/ml) was more than 30 µg/mL; the MIC (NO6, read-out: MIC Didanosine, E. cloacae strain 6, trimethoprim 1 μg/ml, uridine 0 μg/ml) fell in the range of 1 to 2.5 µg/mL (≈ 4.23 to 10.6 µM); the MIC (NO6, read-out: MIC Didanosine, E. cloacae strain 6, trimethoprim 1 μg/ml, uridine 10 μg/ml) lay within 0.1 to 0.5 µg/mL (≈ 0.423 to 2.12 µM); the MIC (NO6, read-out: MIC Didanosine, E. cloacae strain 6, trimethoprim 2 μg/ml, uridine 0 μg/ml) was more than 2.5 µg/mL; the MIC (NO6, read-out: MIC Didanosine, E. cloacae strain 6, trimethoprim 2 μg/ml, uridine 10 μg/ml) was more than 2.5 µg/mL.

`COc1cc(Cc2cnc(N)nc2N)cc(OC)c1OC` [Trimethoprim, trimethoprim]: the MIC under setting [1] was less than 20 µg/mL; the MIC (NO6, E. cloacae strain 6, 5 uM thymidine, uridine 10 μg/ml, read-out: MIC) is less than 20 µg/mL; the MIC (NO6, E. cloacae strain 6, 5 uM thymidine, uridine 100 μg/ml, read-out: MIC) was less than 20 µg/mL.

Values taken from US10828316B2, “Method of treating bacterial infections” (priority 2016, dated 2020).
